Laboratory results: PubChem BioAssay AID1439 (NMMLSC, 2008)
The list shows a part of the results, in another mix than the full data. Results filed as inconclusive are left out. Calls of active or inactive are those of the source. No stated cut-off is given here; in the data, active means binding response below about 49% or above about 150%; inconclusive means no clear call, values can overlap the other calls; inactive means in between.

Protein sequences, listed by entry. Tags and fused reporters are not part of them.
UniProt P09471, whole entry: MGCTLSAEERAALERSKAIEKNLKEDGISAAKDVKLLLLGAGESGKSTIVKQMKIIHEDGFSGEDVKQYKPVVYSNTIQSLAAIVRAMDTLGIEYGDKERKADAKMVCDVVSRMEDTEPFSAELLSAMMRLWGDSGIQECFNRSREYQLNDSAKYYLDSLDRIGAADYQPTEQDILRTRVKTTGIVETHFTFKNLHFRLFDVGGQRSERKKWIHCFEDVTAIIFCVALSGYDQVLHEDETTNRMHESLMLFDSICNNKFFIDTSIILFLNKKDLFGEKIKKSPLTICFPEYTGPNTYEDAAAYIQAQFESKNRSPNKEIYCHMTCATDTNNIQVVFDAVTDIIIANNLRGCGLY

target: Guanine nucleotide-binding protein G(o) subunit alpha (Homo sapiens) (UniProt P09471); test: compounds changing RGS7 association with Galphao – biochemical, multiplexed bead flow cytometry, primary screen (AID 1439); settings: at 10 µM, actives lie on both sides;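 further: fluorescent Galphao held in activated GDP-AlF4 state binding bead-coupled RGS7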

Structure (SMILES) | binding response (% of control)
O=[N+]([O-])c1cc([N+](=O)[O-])c(Nc2ccccn2)c([N+](=O)[O-])c1 | inactive: 101%
